Key:
ERRγ [1] = target: T1, ERRγ (Homo sapiens, UniProt P62508); experiment: ERRγ functional assay: GAL4-ERRγ luciferase reporter gene in AD293 cells; assay type: cell-based; conditions: 10 μM, compared with control ligand 4
T1 sequence (P62508 233-458 limits assumed): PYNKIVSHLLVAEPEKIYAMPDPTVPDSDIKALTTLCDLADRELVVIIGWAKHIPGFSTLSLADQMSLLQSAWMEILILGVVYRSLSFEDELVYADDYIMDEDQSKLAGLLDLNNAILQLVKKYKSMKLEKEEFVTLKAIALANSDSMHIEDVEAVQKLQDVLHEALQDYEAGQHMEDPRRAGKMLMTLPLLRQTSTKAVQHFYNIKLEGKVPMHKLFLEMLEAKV
Experimental: Along with the binding assay campaign, functional activity was determined in order to validate the utility of the binding affinity in a cellular context as described in the Experimental.
Figure 2 Cell based reporter-gene assay screening of 16 analogs ERRγ binding activity in cell was measured by luciferase activity using co-transfection system with GAL4-ERRγ and pFR-luciferase reporter gene.
AD293 cells were cultured in Dulbecco’ modified Eagle medium (DMEM) High glucose supplemented with 0.5% FBS (Hyclone, Logan, UT, USA). After 24 h, culture media was changed with DMEM High glucose containing 10% FBS. DNA constructs, which includes pCMX-Gal4-ERRγ, pFR-luciferase reporter plasmid, pCMV-β-gal were transiently transfected into AD293 cells using TransIT-LT1 transfection reagent (Mirus, Madison, WI, USA) for 24 h. Then, transfected cells were treated with compounds for 24 h and harvested for detection of luciferase activity and β-gal activity. All cells were incubated at 37 °C under 5% CO2 in a humidified incubator [5].

ERRγ [2] = target: T2, ERRγ (Homo sapiens, UniProt P62508); experiment: TR-FRET (LanthaScreen) ERRγ binding assay; conditions: Table 1 screening; 2-fold serial dilution from 10 μM; read-out: ERRγ, IC50 (binding inhibition of ERRγ binding activity)
T2 construct: purchased Life Technologies
T2 sequence (P62508 233-457 limits assumed): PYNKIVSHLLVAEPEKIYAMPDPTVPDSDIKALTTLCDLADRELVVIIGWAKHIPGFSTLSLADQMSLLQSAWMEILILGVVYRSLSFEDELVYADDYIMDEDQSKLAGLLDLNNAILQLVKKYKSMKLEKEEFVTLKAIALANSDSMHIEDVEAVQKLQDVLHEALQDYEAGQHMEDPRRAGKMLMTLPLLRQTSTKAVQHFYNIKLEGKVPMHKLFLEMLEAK
Experimental: Initials creening was conducted using a well established TR-FRET based ERRγ binding assay as described in the Experimental section at a concentration of 10 μM. Serial dilutions of the synthesized compounds were used to calculate IC50 values for the binding affinity with ERRγ.
ERRγ binding assay was conducted with Lantascreen assay system (Life Technologies, Grand Island, NY, USA), which was based on TR-FRET, followed by manufacturer’s instruction. Briefly, compounds were serially diluted with 2-fold staring from 10 μM and 10 μL of each diluent was added in 384 well plate. Then, GST-conjugated ERRγ LBD (ligand-binding domain) was added to be 5 nM. Next, the mixture of fluorescien-conjugated coactivator PGC1a (final concentration to be 500 nM) and Tb-a-GST antibody (final concentration to be 5 nM) was added. The reaction mixture was incubated at rt in dark state for 1 h.

Which “ERRγ functional activity in the cellular system (in words)” value (ERRγ [1]) does the source give for “(Z)-4-(1-(4-(2-(Dimethylamino)ethoxy)phenyl)-5-hydroxy-2-(1-methyl-1H-indol-6-yl)pent-1-en-1-yl)phenol [Compound 15h]” here?
Its value is “partial agonistic activity”.

What about the IC50 (ERRγ [2]) of the same substance?
The IC50 was greater than 10 µM.
